The test system of data set [1] is blood-brain barrier (BBB). Briefly: BBB penetration: nanoconjugate fluorescence in brain parenchyma of healthy mice by optical imaging. The conditions noted are these: i.v. 0.068-0.548 μmol/kg, 120 min, cortex, midbrain, hippocampus.
Data set [2] can be described thus: Dynamic light scattering, hydrodynamic diameter and PDI. The conditions noted are these: DLS in PBS, conjugates without attached rhodamine. Format: physicochemical. Here is the method:
Dynamic Light Scattering: Synthesized conjugates were characterized using a Zetasizer Nano ZS90 (Malvern Instruments, Malvern, UK). Ten microliter aliquots of nanoconjugate samples were diluted in 0.99 mL PBS and were measured 3 times using a clear cuvette. Data represent the mean of three measurements and polydispersity index.

The nature of data set [3]: Zeta potential measurements (Zetasizer Nano ZS90). Format: physicochemical. Here is the method: Zeta Potential Measurements: Synthesized conjugates were characterized with respect to their ζ potential using a Zetasizer Nano ZS90 (Malvern Instruments, Malvern, UK). Ten microliter aliquots of nanoconjugate samples were diluted in 0.99 mL PBS, and the voltage applied was 150 mV. Data represent the mean of three measurements±their standard deviation.

Another data set concerns glioblastoma GL261. The conditions noted are these: injected dose 1×-4×.
Data set [4] deals with blood-brain barrier (BBB). Briefly: BBB crossing of nanoconjugates with IgG cargo in normal brain. The note with it: for BBB permeation efficacy of IgG nanoconjugates (in words): normal brain, 2 h post injection, dose 2× (0.137 μmol/kg) or 4× (0.274 μmol/kg).
The conditions of data set [5]: tail vein injection, dose 2× (0.137 μmol/Kg).
[6] abbreviates: mini nanodrugs containing IgG, voltage 6.92 mV.

“Also recorded” adds a separate entry of the source.

As for PMLA/AP2/rhodamine [P/AP2], the “BBB penetration / nanoconjugate fluorescence in brain parenchyma (in words)” value in data set [1] is “little potential for BBB penetration”. Besides, the “BBB penetration / nanoconjugate fluorescence in brain parenchyma (in words)” value in data set [1] (listed as P/AP-2/rhodamine) is “poor BBB penetration”. Besides, in data set [2], the “Hydrodynamic diameter (volume mode)” value is 5.93 nm and the PDI entry is given as “(0.79)”. In data set [2] (listed as P/AP-2), this substance showed a PDI of 0.79. Also, under “IV tail vein, best fit curve”, the “AUC 0-inf” value is 10900 ng·h/mL, the “AUC 0-t” value came out at 10800 ng·h/mL, the AUMC is 19.3 μg/ml*h^2 and the C0 is 18500 ng/mL. In addition, under “IV tail vein, best fit curve”, the CL is reported as 0.366 (μg)/(μg/ml)/h; the CL2 is listed as 2.60 (μg)/(μg/ml)/h; the MRT (in general, a mean duration of stay, worked out from the concentration-time curve) was 107 min; the V is on record as 0.22 (μg)/(μg/ml). Further, where the note is “IV tail vein, best fit curve”, the V2 is recorded as 0.435 (μg)/(μg/ml), the Vss is 0.65 μg/(μg/ml), the k10 amounted to 1.69 h⁻¹ and the k12 was determined as 12.0 h⁻¹. For the setting “IV tail vein, best fit curve”, the k21 amounted to 6.0 h⁻¹ and the t½Alpha was found to be 2.16 min. Further, the t½Beta (IV tail vein, second phase) was 78.6 min. Further, the “Residual amount of nanoconjugate after 4 h from injection” value (blood, 4 h) is “less than 6%”. The ζ potential in data set [3] (in PBS, voltage 150 mV) is reported as −11.5 mV.
Turning to “PMLA/LLL/AP2(1%)/B6(1%)/rhodamine [P/LLL/AP2/B6]”, the “selectivity R/T attainable per DoE contour plots” value in the data set on glioblastoma GL261 was “can be achieved”. The substance further had a ζ potential in data set [3] (in PBS, voltage 150 mV) of −6.2 mV.
“PMLA/LLL/AP2(1%)/rhodamine [P/LLL/AP2-1]”: the “selectivity R/T attainable per DoE contour plots” value in the data set with glioblastoma GL261 is reported as at most 12. Further, the ζ potential in data set [3] (in PBS, voltage 150 mV) is on record as −2.5 mV.
As to “PMLA/LLL/AP2(4%)/rhodamine [P/LLL/AP2 (4%)]”, the “BBB penetration / nanoconjugate fluorescence in brain parenchyma (in words)” value in data set [1] is given as “decreased BBB penetration”. Also, the ζ potential in data set [3] (in PBS, voltage 150 mV) was −2.2 mV.
As for “PMLA/LLL/AP2/IgG(0.2%)/rhodamine [P/LLL/AP2/IgG]”, the “slow decline / final retention in parenchyma” value in data set [4] (dose 2× (0.137 μmol/Kg)) is on record as over 500 min. Further, the “BBB permeation efficacy of IgG nanoconjugates (in words)” value (“BBB permeation efficacy” for short) is reported as “an increase was visible; also recorded: highest category” in data set [4] and “permeates the BBB with higher efficacy compared to P/LLL (40%)/IgG” in data set [4] (listed as P/LLL (40%)/AP-2/IgG). This substance registered a half-life in blood in data set [5] of 40 min. In addition, the ζ potential in data set [3] (setting [6]) was −7.4 mV.
Take “PMLA/LLL/AP2/IgG-Rhodamine [P/LLL/AP2/IgG-rh]”: in data set [4], the “BBB permeation efficacy” value was “lower”.
Turning to PMLA/LLL/AP7/rhodamine [P/LLL/AP7], in data set [1], the “BBB penetration / nanoconjugate fluorescence in brain parenchyma (in words)” value is given as “significantly less fluorescence than P/LLL/AP-2”. Besides, the ζ potential in data set [3] (in PBS, voltage 150 mV) is listed as −5.48 mV.
The substance PMLA/LLL/B6(1%)/rhodamine [P/LLL/B6-1] came in with a ζ potential in data set [3] (in PBS, voltage 150 mV) of −10.8 mV.
As for “PMLA/LLL/B6/IgG(0.2%)/rhodamine [P/LLL/B6/IgG]”, the “BBB permeation efficacy” value is on record as “significantly higher than P/LLL/B6 levels; also recorded: highest category” in data set [4] and “increased in a similar fashion” in data set [4] (listed as P/LLL/B6/IgG/rh). Besides, in data set [3] (setting [6]), the ζ potential is −7.9 mV.
“PMLA/LLL/D1/AON-Fluorescein(1%) [P/LLL/D1/AON-F]”: in data set [3] (in PBS, voltage 150 mV), the ζ potential is on record as −6.98 mV.
With “PMLA/LLL/D1/IgG(0.2%)/rhodamine [P/LLL/D1/IgG]”, in data set [4], the “BBB permeation efficacy” value is “the levels in the midbrain and cortex remained the same as P/LLL/D1/rh, while a slight drop was seen at the hippocampus”. The substance further came in with a ζ potential in data set [3] (setting [6]) of −7.8 mV.
In the case of “PMLA/LLL/D3(2%)IgG(0.2%)/rhodamine [P/LLL/D3/IgG]”, the “BBB permeation efficacy” value in data set [4] is “larger drop compared to P/LLL/D3/rh”. In data set [3] (setting [6]), this substance yielded a ζ potential of −6.5 mV.
In the case of “PMLA/LLL/IgG(0.2%)/rhodamine [P/LLL/IgG]”, the “BBB permeation efficacy” value is listed as “permeate the BBB” in data set [4] (listed as P/LLL (40%)/IgG) and “LLL-induced increase in permeation” in data set [4] (listed as P/LLL/IgG/rh). In addition, the ζ potential in data set [3] (setting [6]) is given as −10.4 mV.
Turning to PMLA/LLL/cTfRL/rhodamine [P/LLL/cTfRL], the “BBB penetration / nanoconjugate fluorescence in brain parenchyma (in words)” value in data set [1] is “fluorescence intensity measurements comparable to B6 in the midbrain and hippocampus”. In addition, in data set [3] (in PBS, voltage 150 mV), the ζ potential is listed as −9.58 mV.
For PMLA/cTfRL/rhodamine [P/cTfRL], the “BBB penetration / nanoconjugate fluorescence in brain parenchyma (in words)” value in data set [1] is “poor penetration into the brain parenchyma”. Also, in data set [3] (in PBS, voltage 150 mV), the ζ potential is listed as −15.2 mV.
Consider PMLA/rhodamine [P/Rh], for which the ζ potential in data set [3] (in PBS, voltage 150 mV) is −22.9 mV.

These data come from US20200206304A1, “METHODS AND COMPOSITIONS FOR EFFICIENT DELIVERY THROUGH MULTIPLE BIO BARRIERS” (Cedars-Sinai Medical Center, priority 2017, published 2020).
